# Laboratory results from patent US20160024487.
# What was measured:
# [1] = system: Lys(Dnp)-ATNATEVPRIVGG-Lys(Abz)
# [2] = system: Lys(Dnp)-ATNATPDPRIVGG-Lys(Abz)
# [3] = system: Lys(Dnp)-ATLDPRIVGG-Lys(Abz)
# [4] = system: Lys(Dnp)-ATNATAGPRIVGG-Lys(Abz)
# [5] = system: Lys(Dnp)-ATNATAVPRIVGG-Lys(Abz)
# [6] = system: Lys(Dnp)-ATNATAYPRIVGG-Lys(Abz)
# [7] = system: Lys(Dnp)-ATNATEFPRIVGG-Lys(Abz)
# [8] = system: Lys(Dnp)-ATNATFMPRIVGG-Lys(Abz)
# [9] = system: Lys(Dnp)-ATNATGFPRIVGG-Lys(Abz)
# [10] = system: Lys(Dnp)-ATNATHAPRIVGG-Lys(Abz)
# [11] = system: Lys(Dnp)-ATNATHYPRIVGG-Lys(Abz)
# [12] = system: Lys(Dnp)-ATNATLHPRIVGG-Lys(Abz)
# [13] = system: Lys(Dnp)-ATNATLNPRIVGG-Lys(Abz)
# [14] = system: Lys(Dnp)-ATNATMIPRIVGG-Lys(Abz)
# [15] = system: Lys(Dnp)-ATNATMKPRIVGG-Lys(Abz)
# [16] = system: Lys(Dnp)-ATNATMPPRIVGG-Lys(Abz)
# [17] = system: Lys(Dnp)-ATNATNKPRIVGG-Lys(Abz)
# [18] = system: Lys(Dnp)-ATNATPIPRIVGG-Lys(Abz)
# [19] = system: Lys(Dnp)-ATNATPRPRIVGG-Lys(Abz)
# [20] = system: Lys(Dnp)-ATNATQPPRIVGG-Lys(Abz)
# [21] = system: Lys(Dnp)-ATNATSPPRIVGG-Lys(Abz)
# [22] = system: Lys(Dnp)-ATNATSVPRIVGG-Lys(Abz)
# [23] = system: Lys(Dnp)-ATNATTHPRIVGG-Lys(Abz)
# [24] = system: Lys(Dnp)-ATNATTRPRIVGG-Lys(Abz)
# [25] = system: Lys(Dnp)-ATNATVAPRIVGG-Lys(Abz)
# [26] = system: Lys(Dnp)-ATNATVNPRIVGG-Lys(Abz)
# [27] = system: Lys(Dnp)-ATNATWSPRIVGG-Lys(Abz)
# [28] = system: Lys(Dnp)-ATNATWWPRIVGG-Lys(Abz)
# [29] = system: Lys(Dnp)-ATNATX4X3PRIVGG-Lys(Abz), X4 = D, X3 = F
# [30] = system: Lys(Dnp)-ATNATX4X3PRIVGG-Lys(Abz), X4 = G, X3 = K
# [31] = system: Lys(Dnp)-ATNATX4X3PRIVGG-Lys(Abz), X4 = H, X3 = R
# [32] = system: Lys(Dnp)-ATNATX4X3PRIVGG-Lys(Abz), X4 = N, X3 = F
# [33] = system: Lys(Dnp)-ATNATX4X3PRIVGG-Lys(Abz), X4 = N, X3 = M
# [34] = system: Lys(Dnp)-ATNATX4X3PRIVGG-Lys(Abz), X4 = N, X3 = T
# [35] = system: Lys(Dnp)-ATNATX4X3PRIVGG-Lys(Abz), X4 = Q, X3 = T
# [36] = system: Lys(Dnp)-ATNATX4X3PRIVGG-Lys(Abz), X4 = S, X3 = A
# [37] = system: Lys(Dnp)-ATNATYGPRIVGG-Lys(Abz)
# [38] = system: Lys(Dnp)-ATNATYTPRIVGG-Lys(Abz)
# [39] = system: Lys(Dnp)-DQVTVAMTPRIVGG-Lys(Abz)
# [40] = system: Lys(Dnp)-EDQEDQVDPRIVGG-Lys(Abz)
# [41] = system: Lys(Dnp)-HTHHAPLSPRIVGG-Lys(Abz)
substance,measurement,setting,value
Human plasma purified alpha-thrombin,FIIa kcat/KM,[1],200 M⁻¹ s⁻¹
same,Specificity Ratio (FIIa/FXa),[1],9
same,FIIa kcat/KM,[2],2000 M⁻¹ s⁻¹
same,Specificity Ratio (FIIa/FXa),[2],2
Human plasma purified α-thrombin,FIIa kcat/KM,[3],3300 M⁻¹ s⁻¹
same,Functional Selectivity (Specificity*FIIa kcat/KM),[3],12000
same,Specificity Ratio (FIIa/FXa),[3],4
same,kcat/KM,[3],3300 M⁻¹ s⁻¹
same,FIIa kcat/KM,[4],3400 M⁻¹ s⁻¹
same,Functional Selectivity (Specificity*FIIa kcat/KM),[4],810000
same,kcat/KM,[4],3400 M⁻¹ s⁻¹
same,Functional Selectivity (Specificity*FIIa kcat/KM),[5],2.2e+06
same,FIIa kcat/KM,[6],11000 M⁻¹ s⁻¹
same,Functional Selectivity (Specificity*FIIa kcat/KM),[6],5.1e+06
same,kcat/KM,[6],11000 M⁻¹ s⁻¹
same,kcat/KM,[7],870 M⁻¹ s⁻¹
same,FIIa kcat/KM,[8],24000 M⁻¹ s⁻¹
same,Functional Selectivity (Specificity*FIIa kcat/KM),[8],680000
same,kcat/KM,[8],24000 M⁻¹ s⁻¹
same,kcat/KM,[9],1200 M⁻¹ s⁻¹
same,kcat/KM,[10],960 M⁻¹ s⁻¹
same,kcat/KM,[11],1300 M⁻¹ s⁻¹
same,FIIa kcat/KM,[12],25000 M⁻¹ s⁻¹
same,Functional Selectivity (Specificity*FIIa kcat/KM),[12],1.2e+06
same,kcat/KM,[12],25000 M⁻¹ s⁻¹
same,FIIa kcat/KM,[13],14000 M⁻¹ s⁻¹
same,Specificity Ratio (FIIa/FXa),[13],14
same,kcat/KM,[13],14000 M⁻¹ s⁻¹
same,FIIa kcat/KM,[14],18000 M⁻¹ s⁻¹
same,Functional Selectivity (Specificity*FIIa kcat/KM),[14],1.4e+06
same,kcat/KM,[14],18000 M⁻¹ s⁻¹
same,FIIa kcat/KM,[15],23000 M⁻¹ s⁻¹
same,Functional Selectivity (Specificity*FIIa kcat/KM),[15],7e+06
same,kcat/KM,[15],23000 M⁻¹ s⁻¹
same,FIIa kcat/KM,[16],990 M⁻¹ s⁻¹
same,Specificity Ratio (FIIa/FXa),[16],241
same,kcat/KM,[16],990 M⁻¹ s⁻¹
same,kcat/KM,[17],750 M⁻¹ s⁻¹
same,FIIa kcat/KM,[18],18000 M⁻¹ s⁻¹
same,Specificity Ratio (FIIa/FXa),[18],30
same,kcat/KM,[18],18000 M⁻¹ s⁻¹
same,FIIa kcat/KM,[19],17000 M⁻¹ s⁻¹
same,Specificity Ratio (FIIa/FXa),[19],34
same,kcat/KM,[19],17000 M⁻¹ s⁻¹
same,FIIa kcat/KM,[20],0 M⁻¹ s⁻¹
same,Functional Selectivity (Specificity*FIIa kcat/KM),[20],0
same,Specificity Ratio (FIIa/FXa),[20],0
same,kcat/KM,[21],450 M⁻¹ s⁻¹
same,kcat/KM,[22],890 M⁻¹ s⁻¹
same,FIIa kcat/KM,[23],1300 M⁻¹ s⁻¹
same,Specificity Ratio (FIIa/FXa),[23],95
same,kcat/KM,[23],1300 M⁻¹ s⁻¹
same,FIIa kcat/KM,[24],2300 M⁻¹ s⁻¹
same,Specificity Ratio (FIIa/FXa),[24],63
same,kcat/KM,[24],2300 M⁻¹ s⁻¹
same,FIIa kcat/KM,[25],4200 M⁻¹ s⁻¹
same,Specificity Ratio (FIIa/FXa),[25],67
same,kcat/KM,[25],4200 M⁻¹ s⁻¹
same,FIIa kcat/KM,[26],5200 M⁻¹ s⁻¹
same,Specificity Ratio (FIIa/FXa),[26],74
same,kcat/KM,[26],5200 M⁻¹ s⁻¹
same,FIIa kcat/KM,[27],16000 M⁻¹ s⁻¹
same,Functional Selectivity (Specificity*FIIa kcat/KM),[27],5.2e+06
same,kcat/KM,[27],16000 M⁻¹ s⁻¹
same,FIIa kcat/KM,[28],3800 M⁻¹ s⁻¹
same,Specificity Ratio (FIIa/FXa),[28],54
same,kcat/KM,[28],3800 M⁻¹ s⁻¹
same,FIIa kcat/KM,[29],600 M⁻¹ s⁻¹
same,Specificity Ratio (FIIa/FXa),[29],57
same,FIIa kcat/KM,[30],1200 M⁻¹ s⁻¹
same,Specificity Ratio (FIIa/FXa),[30],37
same,FIIa kcat/KM,[31],2200 M⁻¹ s⁻¹
same,Specificity Ratio (FIIa/FXa),[31],15
same,FIIa kcat/KM,[32],780 M⁻¹ s⁻¹
same,Specificity Ratio (FIIa/FXa),[32],56
same,FIIa kcat/KM,[33],720 M⁻¹ s⁻¹
same,Specificity Ratio (FIIa/FXa),[33],27
same,FIIa kcat/KM,[34],870 M⁻¹ s⁻¹
same,Specificity Ratio (FIIa/FXa),[34],60
same,FIIa kcat/KM,[35],7400 M⁻¹ s⁻¹
same,Specificity Ratio (FIIa/FXa),[35],8
same,FIIa kcat/KM,[36],790 M⁻¹ s⁻¹
same,Specificity Ratio (FIIa/FXa),[36],41
same,FIIa kcat/KM,[37],3700 M⁻¹ s⁻¹
same,Specificity Ratio (FIIa/FXa),[37],88
same,kcat/KM,[37],3700 M⁻¹ s⁻¹
same,FIIa kcat/KM,[38],7500 M⁻¹ s⁻¹
same,Functional Selectivity (Specificity*FIIa kcat/KM),[38],2e+06
same,kcat/KM,[38],7500 M⁻¹ s⁻¹
same,FIIa kcat/KM,[39],30000 M⁻¹ s⁻¹
same,Functional Selectivity (Specificity*FIIa kcat/KM),[39],1.9e+06
same,Specificity Ratio (FIIa/FXa),[39],64
same,FIIa kcat/KM,[40],1800 M⁻¹ s⁻¹
same,Functional Selectivity (Specificity*FIIa kcat/KM),[40],240000
same,Specificity Ratio (FIIa/FXa),[40],133
same,kcat/KM,[40],1800 M⁻¹ s⁻¹
same,FIIa kcat/KM,[41],31000 M⁻¹ s⁻¹
same,Functional Selectivity (Specificity*FIIa kcat/KM),[41],9.5e+06
same,Specificity Ratio (FIIa/FXa),[41],302
same,kcat/KM,[41],31000 M⁻¹ s⁻¹
